Experimental data published in patent US20160362399A1, “ARYL, HETEROARYL, AND HETEROCYCLIC COMPOUNDS FOR TREATMENT OF COMPLEMENT MEDIATED DISORDERS” (Achillion Pharmaceuticals, Inc., priority 2014, published 2016).

The chains behind the UniProt entries cited, without tags or fusion partners. Residues count along the entry.
UniProt P00746, 26-253: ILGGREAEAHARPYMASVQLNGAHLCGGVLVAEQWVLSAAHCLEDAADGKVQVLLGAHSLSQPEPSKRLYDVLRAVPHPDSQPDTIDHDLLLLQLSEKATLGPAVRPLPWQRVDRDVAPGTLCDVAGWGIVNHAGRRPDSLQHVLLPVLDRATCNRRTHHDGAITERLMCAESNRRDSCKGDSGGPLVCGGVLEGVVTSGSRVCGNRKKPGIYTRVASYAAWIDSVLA

The molecules below were run against T1, Human factor D (Homo sapiens, UniProt P00746) (assay: Human Factor D Assay).
T1 construct: purified from human serum; purchased Complement Technology, Inc; host or cells: human serum
Format: biochemical
Description: Other standard factor D inhibition assays are also available.
Human factor D (purified from human serum, Complement Technology, Inc.) at 80 nM final concentration is incubated with test compound at various concentrations for 5 minutes at room temperature in 50 mM Tris, 1M NaCl, pH 7.5. A synthetic substrate Z-L-Lys-SBzl and DTNB (Ellman's reagent) are added to final concentrations of 100 μM each. The increase in color is recorded at OD405 nm in a microplate in kinetic mode over 30 minutes with 30 second time points in a spectrofluorimeter. IC50 values are calculated by non-linear regression from the percentage of inhibition of complement factor D activity as a function of test compound concentration.
`CC(=O)c1cn(CC(=O)N2C[C@H](F)C[C@H]2C(=O)Nc2cccc(OCc3ccccc3)n2)c2ccc(-c3ccnnc3)cc12` [Compound 60, (2S,4R)-1-(2-(3-acetyl-5-(pyridazin-4-yl)-1H-indol-1-yl)acetyl)-N-(6-(benzyloxy)pyridin-2-yl)-4-fluoropyrrolidine-2-carboxamide] showed an IC50 of 1 to 10 µM. `NC(=O)c1nn(CC(=O)N2C[C@H](F)C[C@H]2C(=O)Nc2cncc(Br)c2)c2ccc(-c3ccnnc3)cc12` [Compound 90, 1-(2-((2S,4R)-2-(5-bromopyridin-3-ylcarbamoyl)-4-fluoropyrrolidin-1-yl)-2-oxoethyl)-5-(pyridazin-4-yl)-1H-indazole-3-carboxamide] was tested, and the IC50 was 1 to 10 µM. `CC(=O)c1cn(CC(=O)N2C[C@H](F)C[C@H]2C(=O)Nc2cc(C)nn2-c2ccccc2F)c2ccc(-c3ccnnc3)cc12` [Compound 160, (2S,4R)-1-(2-(3-acetyl-5-(pyridazin-4-yl)-1H-indol-1-yl)acetyl)-4-fluoro-N-(1-(2-fluorophenyl)-3-methyl-1H-pyrazol-5-yl)pyrrolidine-2-carboxamide] gave an IC50 of 1 to 10 µM.
